Data reported in paper PMC6321222, “An Application of Fit Quality to Screen MDM2/p53 Protein-Protein Interaction Inhibitors” (Molecules, 2018).

Chains of the proteins cited; added tags and fusions are not shown. Residues count along the entry.
UniProt Q00987, 1-118: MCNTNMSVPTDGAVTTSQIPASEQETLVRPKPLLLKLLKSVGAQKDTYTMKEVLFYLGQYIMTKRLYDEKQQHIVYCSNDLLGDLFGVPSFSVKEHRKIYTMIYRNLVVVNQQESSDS

Molecular target: T1, human recombinant His-fused soluble protein MDM2 (residues 1–118) (Homo sapiens, UniProt Q00987)
T1 construct: His-fused soluble protein MDM2 (residues 1–118); His
Assay type: binding

- FQ-Test: 0.84
Structure (SMILES): COc1ccc(C2=N[C@@H](c3ccc(Cl)cc3)[C@@H](c3ccc(Cl)cc3)N2C(=O)N2CCNC(=O)C2)c(OC(C)C)c1 [Nutlin-3a, reference compound]
